Data as given in ChEMBL document CHEMBL3352090, “Discovery of a Potent Analgesic NOP and Opioid Receptor Agonist: Cebranopadol” (2014).

Chains of the proteins cited; added tags and fusions are not shown.
UniProt P35372, whole entry: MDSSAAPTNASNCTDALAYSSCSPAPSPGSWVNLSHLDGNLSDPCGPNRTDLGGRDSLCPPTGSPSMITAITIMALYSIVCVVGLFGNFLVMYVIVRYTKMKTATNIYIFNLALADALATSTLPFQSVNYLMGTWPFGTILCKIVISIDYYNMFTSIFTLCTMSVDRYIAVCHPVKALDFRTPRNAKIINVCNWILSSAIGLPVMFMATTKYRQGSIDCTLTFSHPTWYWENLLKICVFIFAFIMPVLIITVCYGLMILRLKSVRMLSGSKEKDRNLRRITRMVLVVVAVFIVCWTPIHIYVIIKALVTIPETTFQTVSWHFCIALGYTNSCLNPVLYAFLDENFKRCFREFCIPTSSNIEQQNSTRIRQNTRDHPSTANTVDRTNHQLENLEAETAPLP
UniProt P41146, whole entry: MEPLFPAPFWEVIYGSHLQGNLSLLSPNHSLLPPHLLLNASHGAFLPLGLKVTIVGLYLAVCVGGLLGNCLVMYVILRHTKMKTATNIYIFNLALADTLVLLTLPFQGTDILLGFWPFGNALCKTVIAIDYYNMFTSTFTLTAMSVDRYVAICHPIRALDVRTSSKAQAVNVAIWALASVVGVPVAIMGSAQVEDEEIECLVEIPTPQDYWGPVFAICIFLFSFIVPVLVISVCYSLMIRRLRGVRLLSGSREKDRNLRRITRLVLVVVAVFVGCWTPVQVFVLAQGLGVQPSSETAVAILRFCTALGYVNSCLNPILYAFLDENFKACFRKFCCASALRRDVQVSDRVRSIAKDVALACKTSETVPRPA

Assays:
[1] = target: Mu-type opioid receptor (Homo sapiens) (UniProt P35372); assay: Displacement of [3H]naloxone from human MOP receptor expressed in CHO-K1 cells at 1 uM by scintillation proximity assay
[2] = target: Nociceptin receptor (Homo sapiens) (UniProt P41146); assay: Displacement of [3H]nociceptin from human NOP receptor expressed in CHO-K1 cells at 1 uM by scintillation proximity assay
[3] = target: Nociceptin receptor (Homo sapiens) (UniProt P41146); assay: Agonist activity at human recombinant NOP receptor expressed in CHO-K1 cells assessed as stimulation of [35S]GTPgammaS binding by scintillation proximity assay relative to nociceptin
[4] = target: Mu-type opioid receptor (Homo sapiens) (UniProt P35372); assay: Agonist activity at human recombinant MOP receptor expressed in CHO-K1 cells assessed as stimulation of [35S]GTPgammaS binding by scintillation proximity assay relative to DAMGO
[5] = tested on: Mus musculus; assay: Antinociceptive activity in orally dosed NMRI mouse assessed as increase in latency for tail withdrawal from radiant heat source by tail flick test
[6] = tested on: Mus musculus; assay: Antinociceptive activity in iv dosed NMRI mouse assessed as increase in latency for tail withdrawal from radiant heat source by tail flick test

Compound: c1ccc([C@]2(N3CCCCC3)CC[C@]3(CC2)OCCc2c4ccccc4[nH]c23)cc1
- inhibition [1]: 43%
- inhibition [2]: < 10%

Compound: CN(C)[C@]1(c2ccccc2)CC[C@]2(CC1)OCCc1c3cc(O)ccc3[nH]c12
- Efficacy [3]: 75%
- Efficacy [4]: 96%

Compound: CN1CCN([C@]2(c3ccccc3)CC[C@@]3(CC2)OCCc2c4ccccc4[nH]c23)CC1
- inhibition [1]: < 10%
- inhibition [2]: < 10%

Compound: CN(C)[C@]1(c2ccccc2)CC[C@]2(CC1)NCCc1c3ccccc3[nH]c12
- Efficacy [3]: 108%
- Efficacy [4]: 101%

Compound: c1ccc([C@]2(N3CCOCC3)CC[C@]3(CC2)OCCc2c4ccccc4[nH]c23)cc1
- inhibition [1]: < 10%
- inhibition [2]: < 10%

Compound: CN[C@]1(c2ccccc2)CC[C@]2(CC1)OCCc1c3cc(F)ccc3[nH]c12
- inhibition [5]: Dose-dependent effect
- Efficacy [3]: 101%
- Efficacy [4]: 110%
- inhibition [6]: Dose-dependent effect
